# Values joined by “and” are separate entries in the source; they are usually repeats but may differ in a detail not shown here. Equal values may be shown once. Only a part is listed here, and it is no random draw. Active and inactive are the calls of the source. No stated cut-off is given here; in the data, active means growth inhibition above about 70%; inactive means the rest.
# Legend:
# [1] = NCI Yeast Anticancer Drug Screen. Data for the rad50 strain (AID 155);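 further: 0% = growth of vehicle-only cultures of the same strain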; conditions: S. cerevisiae rad50 strain growth inhibition; at 50.0 µM; active compounds read high
# [2] = NCI Yeast Anticancer Drug Screen. Data for the mec2-1 strain (AID 157); conditions: S. cerevisiae mec2-1 strain, at 50.0 µM, active compounds read high
# [3] = NCI Yeast Anticancer Drug Screen. Data for the sgs1 mgt1 strain (AID 161);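 further: 0% = growth of cultures given vehicle only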; conditions: S. cerevisiae sgs1 mgt1 strain, at 50.0 µM, active compounds read high
# [4] = NCI Yeast Anticancer Drug Screen. Data for the cln2 rad14 strain (AID 165);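 further: 0% = growth equal to vehicle treated cultures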; conditions: S. cerevisiae cln2 rad14 strain, at 50.0 µM, active compounds read high
# [5] = NCI Yeast Anticancer Drug Screen. Data for the bub3 strain (AID 167); conditions: S. cerevisiae bub3 mutant strain, at 50.0 µM, active compounds read high
# [6] = NCI Yeast Anticancer Drug Screen. Data for the mlh1 rad18 strain (AID 175); conditions: S. cerevisiae mlh1 rad18 strain growth inhibition; at 50.0 µM; active compounds read high
SMILES,growth inhibition [1],growth inhibition [2],growth inhibition [3],growth inhibition [4],growth inhibition [5],growth inhibition [6]
N/C(=N\N=C\c1ccc([N+](=O)[O-])o1)N[N+](=O)[O-],inactive: 29.3%,inactive: 16.1%,inactive: 15.5%,inactive: 16.5%,inactive: 15%,inactive: 24.9%
CCN(CCCl)Cc1csc2ccccc12,inactive: 14.3%,inactive: -7.45%,inactive: 4.55%,inactive: -43.2%,inactive: -5%,inactive: -11.8%
N#CC1=C(C#N)NP(=O)(N(CCCl)CCCl)N1,inactive: -9.15%,inactive: -1.05%,inactive: 6.7%,inactive: 12.4%,inactive: -4.85%,inactive: 3.25%
CCOP(=O)(Nc1nccs1)c1ccc(N)cc1 (stereo not given),inactive: -0.8%,inactive: 8.75%,inactive: -16.2%,inactive: -18.9%,inactive: 23.4%,inactive: -9.3%
O=P1(Oc2ccccc2)NNP2(=NP(Cl)(Cl)=NP(Cl)(Cl)=N2)NN1 (stereo not given),inactive: 7.35%,inactive: -3.5%,inactive: -21.9%,inactive: -22.3%,inactive: 0.1%,inactive: 13.5%
O=C1NC(=O)C(c2cccc(N(CCCl)CCCl)c2)N1 (stereo not given),inactive: 29.8%,inactive: 8%,inactive: 14.9%,inactive: 16.6%,inactive: 27.6%,inactive: 15.9%
CCOP(=S)(OCC)OCC,inactive: 15.8%,inactive: -25.6%,inactive: 21.9%,inactive: -12.8%,inactive: -4.65%,inactive: 17.2%
CCc1cccc2ccc(N(CCBr)CCBr)cc12,inactive: -6.85%,inactive: -18.8%,inactive: 17.7%,inactive: 45%,inactive: 5.9%,inactive: 32.7%
Cc1ccc(S(=O)(=O)CN(CCCl)CCCl)cc1,inactive: 26.9%,inactive: 10.8%,inactive: 32.8%,inactive: 22.5%,inactive: 19.9%,inactive: 29.6%
NC(=S)NP(=O)(NC(N)=S)NC(N)=S,inactive: -19.3%,inactive: -1.8%,inactive: -7%,inactive: -48.2%,inactive: 7.05%,inactive: -15.3%
O=[As](O)(O)c1ccc(Cl)cc1,inactive: 22.6%,inactive: -9.95%,inactive: 0.7%,inactive: 2.7%,inactive: -53.2%,inactive: -19.8%
CN(C)C(=O)Oc1cccn(C)c1=O,inactive: -1.35%,inactive: -17.6%,inactive: -8.95%,inactive: -1.4%,inactive: 5.2%,inactive: -29.9%
Cc1ccc(N(CCCl)CCCl)cc1C,inactive: 8.7%,inactive: 11.8%,inactive: -13.2%,inactive: 2.3%,inactive: 1.25%,inactive: 4.8%
CC(CO)COP(=O)(N(CCCl)CCCl)N1CC1 (stereo not given),inactive: 1.8%,inactive: -2.75%,inactive: -18.4%,inactive: 4.1%,inactive: 2.05%,inactive: 13.6%
NC1=NCCN1[N+](=O)[O-],inactive: -4.7% and inactive: 12.7% and inactive: -1.25%,inactive: -4.35% and inactive: 6.8% and inactive: -2.85%,inactive: 2.1% and inactive: -15.6% and inactive: 1%,inactive: -24.6% and inactive: 2.25% and inactive: 1.7%,inactive: 15.2% and inactive: 4.3% and inactive: -2.05%,inactive: 5.3% and inactive: 5.05% and inactive: 0.95%
CC1(C)OC2OC3COP(=O)(N(CCCl)CCCl)OC3C2O1 (stereo not given),inactive: -36.5%,inactive: 1.05%,inactive: -59.4%,inactive: -3.15%,inactive: -37.6%,inactive: -46%
CN1C(NC#N)=NP(=O)(O)C1(C)C,inactive: -23.2%,inactive: -12.6%,inactive: -27.4%,inactive: 23.2%,inactive: 27.6%,inactive: -20.6%
CN(C)CC(c1ccccc1)C1(O)CCCC1 (stereo not given),inactive: 18.6%,inactive: 1.5%,inactive: 33.4%,inactive: 51.1%,inactive: -4.35%,inactive: 15%
C[N+]([O-])(CCCl)CCCn1ccnc1[N+](=O)[O-] (stereo not given),inactive: 6.5%,inactive: -24.8%,inactive: -10.6%,inactive: 3%,inactive: 13.2%,inactive: 5.55%
CCOP(OCC)OCc1ccccc1,inactive: 17.6%,inactive: -4.05%,,,,inactive: -4.8%
NC(=O)N/C(N)=N/P(=O)(Oc1ccccc1)Oc1ccccc1,inactive: 9.8%,inactive: 8.15%,inactive: 8.7%,inactive: 12.9%,inactive: -5.9%,inactive: 4.05%
NC(=O)N/N=C/c1ccc(N(CCCl)CCCl)cc1,inactive: -5.6%,inactive: -2.8%,inactive: 4.35%,inactive: 8.25%,inactive: 3.85%,inactive: 0.25%
C=CCOP(O)OCC=C,inactive: -5.35%,inactive: -15.7%,inactive: -10.3%,inactive: 10.2%,inactive: -2.55%,inactive: -11.1%
N#CCCOP(=O)(N(CCCl)CCCl)N1CC1 (stereo not given),active: 82.5%,inactive: 60.3%,active: 91.4%,inactive: 48.5%,active: 93.7%,active: 73.8%
CN(C)CC(=O)c1ccc2c(ccc3ccccc32)c1,inactive: 33.3%,inactive: 6.05%,inactive: 42.8%,inactive: 1%,inactive: 3.8%,inactive: 24.4%
Cc1c[nH]c(=O)[nH]c1=O,,,inactive: -9.85% [middle of 4 runs],,,
CCCCP(Cl)CCCC,inactive: 0.25%,inactive: -14.6%,inactive: -14.7%,inactive: 9.8%,inactive: 16.6%,inactive: 5.2%
CN1CCCC(OC(=O)C(c2ccccc2)c2ccccc2)C1 (stereo not given),inactive: 6.45%,inactive: 0.25%,inactive: -40.5%,inactive: 0%,inactive: -24.9%,inactive: -1.55%

# From PubChem BioAssay (NCI)
